Changes are numbered by the printed parent chain.
B1: scFv40 (scFv, V domains shown)
VH: not shown
VL: SELTQDPAVSVALGQTVRITCQGDSLRSYYASWYQQKPGQAPVLVIYGKNNRPSGIPDRFSGSSSGNTASLTITGAQAEDEADYYCNSSDPDQLLVVFGGGTKLTVL
B2: scFv69 (scFv, V domains shown)
VH: not shown
VL: B1 VL with D90E, D92T, Q93P, L94P, L95R

Biological target: trastuzumab
Experiment: BLI

Row | Binder | koff
1 | B1 | 0.044 s⁻¹
2 | B2 | 0.00134 s⁻¹

Source: publication PMC9272835 (2022)
